This is an account of results in patent US20140286963A1.

Protein sequences, listed by entry. Tags and fused reporters are not part of them. Lines headed by an entry give the natural chain unless they say otherwise; changes in a name come on top. Residues count along the entry.
UniProt P56817, 22-457: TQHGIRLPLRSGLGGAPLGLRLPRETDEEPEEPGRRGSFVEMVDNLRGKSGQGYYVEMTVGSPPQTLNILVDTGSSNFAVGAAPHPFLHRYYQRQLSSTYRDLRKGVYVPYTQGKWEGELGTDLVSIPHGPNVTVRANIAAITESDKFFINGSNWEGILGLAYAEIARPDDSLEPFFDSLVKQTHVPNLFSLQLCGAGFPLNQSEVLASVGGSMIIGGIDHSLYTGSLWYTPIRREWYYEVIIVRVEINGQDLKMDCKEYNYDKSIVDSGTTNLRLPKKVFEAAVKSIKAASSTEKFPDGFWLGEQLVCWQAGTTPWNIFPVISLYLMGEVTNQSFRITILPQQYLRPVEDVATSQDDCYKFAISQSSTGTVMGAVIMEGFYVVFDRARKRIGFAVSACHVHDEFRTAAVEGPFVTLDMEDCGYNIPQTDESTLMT

The assay has as its target human BACE1 extracellular domain, amino acids 1-457 of SEQ ID NO:49 (human) (UniProt P56817). Briefly: cell-based or functional assay.

“OM99-2 (CalBiochem, catalog #496000) (peptide)” yielded an IC50, HTRF enzyme activity assay of 11 nM.
